Data taken from patent US12550885B2, “Red blood cell storage solutions, solution additives, and methods for improving the storage of red blood cells” (University of Cincinnati, priority 2016, dated 2026).

System: C57BL/6 mice
Assay: Lung endothelial permeability after transfusion of aged pRBCs (Evans blue method)
Type: in vivo, mouse
Conditions: 200 μl IV aged pRBCs treated with 125 μM AT, 6 hours after transfusion
Protocol: Male C57BL/6 mice aged 8-10 weeks were purchased from Jackson Laboratories, fed standard laboratory diet and water ad libitum, and acclimated for 1 week in climate-controlled conditions with 12 hours light-dark cycles prior to use. Asm-deficient mice (Asm^−/−) on a C57BL/6 background were used and compared to syngenic C57Bl/6 wild type mice as controls. All experiments were approved by the Institutional Animal Care and Use Committee at the University of Cincinnati. To study the effect of AT treatment on lung inflammation following blood transfusion, mice received 200 μl IV injections of pRBCs or MPs. Lungs were taken 6 hours after transfusion for either histologic or Evans blue evaluation. Histologic lung sections were examined for evidence of lung edema with hematoxylin and inflammatory cells with anti-Gr1 antibodies (AbD Serotec, Raleigh, NC). Tight junction integrity was assessed by staining lung slides with Cy3-conjugated anti-ZO1 (Jackson ImmunoResearch, West Grove, PA). Endothelial cell permeability was assessed using the Evans blue method (source). In brief, mice were weighed and injected with 30 mg/kg Evans blue. […] Evans blue extraction calculated by measuring the optical density at 620 nm and comparing to a standard curve, and values were normalized to dry lung weight.

CN(C)CCC=C1c2ccccc2CCc2ccccc21 [AT, Amitriptyline]
Evans blue capillary leak in the lungs: an effect not seen
